Measurements: US5416191A, “Bradykinin antagonists” (Cortech, Inc., priority 1993, dated 1995)

Amino acid sequences for entries named in this document (tags omitted).
UniProt P25023, whole entry: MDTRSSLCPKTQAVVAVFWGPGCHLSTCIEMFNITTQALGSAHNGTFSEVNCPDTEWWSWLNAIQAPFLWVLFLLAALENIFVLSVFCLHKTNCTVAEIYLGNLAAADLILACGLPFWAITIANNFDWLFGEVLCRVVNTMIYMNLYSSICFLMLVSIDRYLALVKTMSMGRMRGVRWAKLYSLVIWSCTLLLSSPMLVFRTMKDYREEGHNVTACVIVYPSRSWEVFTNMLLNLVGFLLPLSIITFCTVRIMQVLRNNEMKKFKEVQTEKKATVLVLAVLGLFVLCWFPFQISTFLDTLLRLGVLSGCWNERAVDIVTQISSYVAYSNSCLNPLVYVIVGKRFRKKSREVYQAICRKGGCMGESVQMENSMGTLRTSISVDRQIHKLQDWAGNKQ
UniProt O70526, whole entry: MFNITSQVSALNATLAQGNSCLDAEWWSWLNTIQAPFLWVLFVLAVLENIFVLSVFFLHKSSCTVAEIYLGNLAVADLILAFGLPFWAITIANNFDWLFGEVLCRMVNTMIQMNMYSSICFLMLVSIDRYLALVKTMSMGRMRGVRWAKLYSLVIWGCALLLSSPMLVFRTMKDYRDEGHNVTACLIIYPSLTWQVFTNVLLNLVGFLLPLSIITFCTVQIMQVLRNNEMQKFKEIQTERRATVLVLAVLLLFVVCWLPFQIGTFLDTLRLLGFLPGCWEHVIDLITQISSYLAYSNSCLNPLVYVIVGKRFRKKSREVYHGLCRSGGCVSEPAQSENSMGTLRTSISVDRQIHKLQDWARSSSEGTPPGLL

Experiments:
[1] = target: T1, bradykinin receptor of the B2 class (rat uterus) (Rattus norvegicus, UniProt P25023); assay: Rat uterus (RU) in vitro, antagonism of bradykinin
T1 construct: concentration effect curves to bradykinin (BK) on rat uterus in vitro; from tissue; host or cells: rat uterus
Procedure: Thus in vitro studies were performed on standard assay systems, namely, guinea-pig ileum (GPI), rat uterus (RU) and rabbit jugular vein (RJV). […] The PA2 can be defined as the negative logarithm of the molar concentration of the antagonist in the presence of which the potency of the agonist is reduced two-fold, i.e. twice the amount of agonist is required to produce a given response in the presence of, than in the absence of, the antagonist. A high potency of antagonism is indicated by a high PA2 value, i.e., a low concentration of antagonist is effective.
The percentage recovery (% Rec) was also determined for compounds with respect to each assay.
With respect to duration of activity, it is noted that after exposure to the highest concentration of antagonist, each tissue was washed extensively and then assessed for recovery from the antagonist effect.
Potency in the rat uterus assay was assessed as described above and PA2 values determined.

[2] = target: bradykinin receptor of the B2 class (guinea-pig ileum) (Cavia porcellus, UniProt O70526); conditions: Table A; recovery after wash, lower = longer duration

CC(C)C[C@H](NC(=O)[C@@H](Cc1ccccc1)NC(=O)[C@H](CS)NC(=O)[C@H](Cc1ccccc1)NC(=O)CNC(=O)[C@@H]1C[C@@H](O)CN1C(=O)[C@@H]1CCCN1C(=O)[C@H](CCCNC(=N)N)NC(=O)[C@H](N)CCCNC(=N)N)C(=O)N[C@@H](CCCNC(=N)N)C(=O)O [CP-0126]
100%: RU % REC ([1]; Table A, recovery after wash) | % REC MONOMER ([1]; Table C, rat uterus) | RAT UTERUS % RECOVERED ([1]; Table E) | % RECOVERY ([1]; Table H, rat uterus) | GPI % REC [2]
